The entries are a selection whose mix differs from that of the whole data set. Some results for these compounds are left out of this collection, so the calls shown say nothing about other tests. Active and inactive are the calls of the source.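 How the source made its calls: active means inhibition above a per-campaign cutoff, the mean inhibition of all tested compounds plus 3 SD (cut at about 27% in these data); inactive means the rest.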
Experiment: growth loss in parental Ba/F3 cells – cell-based, murine pro-B, CellTiter-Glo luminescence, counter-screen for JAK2V617F inhibitor project (AID 1486);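 further: 0% = DMSO wells and 100% = JAK Inhibitor I control wells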
Settings: Ba/F3 parental viability, CellTiter-Glo ATP luminescence; at 5.6 µM; stronger effect = higher value

Row | SMILES | inhibition
1 | COc1ccc(Br)c(C(=O)NCC2(N3CCCCC3)CCCCC2)c1 | inactive: -0.52%
2 | CN(C)c1cccc(C(=O)NCC2(N(C)C)CCCCC2)c1 | inactive: 2.29%
3 | O=C(OC1CN2CCC1CC2)C(CO)(c1ccccc1)c1ccccc1 (stereo unspecified) | inactive: 0.57%
4 | COc1cccc(C(=O)NCC2(N3CCCCC3)CCCCC2)c1 | inactive: -3.1%
5 | C=CCN1CCN(CCOC(=O)C(O)(c2ccccc2)c2ccccc2)CC1 | inactive: 5.36%
6 | CCN1CCCC(OC(=O)C2(O)c3ccccc3C=Cc3ccccc32)C1 (stereo unspecified) | inactive: 3.45%
7 | Cc1ccccc1C(=O)NCC1(N2CCCCC2)CCCCC1 | inactive: 4.82%
8 | CN(C)C1CCCC1OC(=O)C(O)(c1ccccc1)c1ccccc1 (stereo unspecified) | inactive: 4.6%
9 | CCN(CC)CC(C)C(C)OC(=O)C(O)(c1ccccc1)c1ccccc1 (stereo unspecified) | inactive: 3.34%
10 | CC(C)N1C(=O)CC2(CCN(CCOC(=O)C(O)(c3ccccc3)c3ccccc3)CC2)C1=O | inactive: 3.22%
11 | O=C(NCC1(N2CCCCC2)CCCCC1)c1cc([N+](=O)[O-])ccc1Cl | inactive: 7.93%

From PubChem BioAssay AID1486 (The Scripps Research Institute Molecular Screening Center, 2009)
